We go through one substance from patent US8969304B2, “Compositions and methods for the prevention of cancer in high risk patients” (The Institute for Cancer Research, priority 2010, dated 2015).

The chains behind the UniProt entries cited, without tags or fusion partners. Residues count along the entry.
UniProt P30730, 27-700: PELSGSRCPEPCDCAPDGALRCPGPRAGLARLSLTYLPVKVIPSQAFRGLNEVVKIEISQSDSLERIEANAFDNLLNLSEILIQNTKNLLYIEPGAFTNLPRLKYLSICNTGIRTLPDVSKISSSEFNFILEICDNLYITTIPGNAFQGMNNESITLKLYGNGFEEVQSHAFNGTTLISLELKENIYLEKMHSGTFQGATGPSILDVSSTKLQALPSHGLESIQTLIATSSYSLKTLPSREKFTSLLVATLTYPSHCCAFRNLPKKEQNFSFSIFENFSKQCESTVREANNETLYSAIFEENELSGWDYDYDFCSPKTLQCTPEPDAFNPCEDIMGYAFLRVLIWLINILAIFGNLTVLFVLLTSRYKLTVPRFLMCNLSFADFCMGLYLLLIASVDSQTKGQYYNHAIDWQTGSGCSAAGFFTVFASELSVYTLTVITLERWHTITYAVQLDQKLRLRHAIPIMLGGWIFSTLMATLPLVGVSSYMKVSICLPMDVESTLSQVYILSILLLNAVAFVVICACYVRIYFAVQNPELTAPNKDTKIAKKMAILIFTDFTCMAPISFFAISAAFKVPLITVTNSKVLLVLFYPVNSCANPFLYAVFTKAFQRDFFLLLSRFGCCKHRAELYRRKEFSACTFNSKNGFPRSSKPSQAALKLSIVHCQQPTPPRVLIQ
UniProt P22888, 27-699: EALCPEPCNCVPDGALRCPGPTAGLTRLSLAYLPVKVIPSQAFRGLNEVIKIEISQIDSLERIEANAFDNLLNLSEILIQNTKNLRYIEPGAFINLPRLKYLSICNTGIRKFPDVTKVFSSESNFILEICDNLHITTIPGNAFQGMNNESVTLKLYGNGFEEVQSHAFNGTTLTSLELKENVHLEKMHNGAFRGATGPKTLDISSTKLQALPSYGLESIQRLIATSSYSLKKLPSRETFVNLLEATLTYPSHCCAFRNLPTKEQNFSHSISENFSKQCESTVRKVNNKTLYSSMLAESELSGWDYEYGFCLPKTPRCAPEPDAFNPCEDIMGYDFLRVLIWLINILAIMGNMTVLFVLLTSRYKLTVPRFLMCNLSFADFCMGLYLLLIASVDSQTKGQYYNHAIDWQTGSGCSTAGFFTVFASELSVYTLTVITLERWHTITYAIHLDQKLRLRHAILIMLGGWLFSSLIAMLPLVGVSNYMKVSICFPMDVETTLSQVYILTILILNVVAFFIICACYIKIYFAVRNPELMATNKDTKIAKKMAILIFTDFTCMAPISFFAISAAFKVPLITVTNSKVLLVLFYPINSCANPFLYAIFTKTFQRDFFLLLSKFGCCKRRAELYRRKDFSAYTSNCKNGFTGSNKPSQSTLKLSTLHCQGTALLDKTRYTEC

The test system of one test is breast tissue. The experiment in a line: pilot study in asymptomatic nulliparous BRCA1 carriers, gene expression in breast epithelial cells. Format: in vivo, human. The conditions noted are these: 250 μg r-hCG sc on alternate days, three months; two volunteers; preliminary.
The test system of another test is LHCGR. The experiment in a line: real time RT-PCR, LHCGR gene expression. The conditions noted are these: MCF-10F, from the first day of treatment on. It is filed as cell-based, human.
The next test deals with GPR30. Kind of test: real time RT-PCR, GPR30 gene expression. Format: cell-based, human. The conditions noted are these: treated MCF-10F cells, data not shown.
The subject of a further test is FAK/AKT/FOXO3A pathway. Kind of test: FAK, AKT and FOXO3A expression (unpublished data). It is filed as cell-based. The conditions noted are these: previous results.
A further test relates to CXCR1. The experiment in a line: real time RT-PCR, CXCR1 gene expression. Format: cell-based, human. The conditions noted are these: MCF-10F, all along the treatment.
Test [1] concerns E2-transformed MCF-10F cells. Kind of test: solid mass formation and branching of E2-transformed MCF-10F cells in collagen. The conditions noted are these: 2.5 mcg/ml r-hCG. It is filed as cell-based, human.
The target of a further test is T1, LH/hCG-R in MA-10 cells (Mus musculus, UniProt P30730).
T1 construct: endogenous in cells; host or cells: MA-10 mouse Leydig tumor cells
Kind of test: intracellular cAMP production (enzyme immunoassay). It is filed as cell-based. The conditions noted are these: 2.5 μg r-hCG/ml or 20 μM PPFC-879-81-95.

In the next test the target is T2, LH/hCG-R in MCF10F cells (Homo sapiens, UniProt P22888).
T2 construct: For verifying the presence and functionality of the receptor in normal and transformed MCF10F cells; endogenous in cells; host or cells: MCF10F human breast epithelial cells
The experiment in a line: intracellular cAMP production (enzyme immunoassay). The conditions noted are these: 2.5 μg r-hCG/ml or 20 μM PPFC-879-81-95. It is filed as cell-based.

Test [2] has as its system mammary gland of virgin rats. The conditions noted are these: cited from earlier work.
Where [3] appears, read: virgin rats, validated by real time RT-PCR.

Regarding “r-hCG: recombinant human chorionic gonadotropin (r-hCG; Ovidrel)”, the “genomic signature of the breast tissue” value in the test with breast tissue is given as “exhibits a shift of the same group of genes detected in parous women”. For the same substance, in the test on LHCGR, the “hCG receptor (LHCGR) gene expression” value is listed as “up-regulated”. For the same substance, in the test with GPR30, the “GPR30 mRNA expression” value is “undetectable or very low values”. In the test with FAK/AKT/FOXO3A pathway, the “FAK and AKT” value was “decrease”; the FOXO3A expression result is on record as “up-regulate”. In the test with CXCR1, the CXCR1 expression result was “down-regulated”. Moreover, the “number of secondary and tertiary branching in the ductular structures” value in test [1] was “increased the number of secondary and tertiary branching”. In addition, the “number of solid masses” value in [1] (in comparison with the controls) is on record as “significant decrease in the number of solid masses”. Further, in the test with LH/hCG-R in MA-10 cells, the “intracellular cAMP production” value is given as “time-dependent increase”. Moreover, the “intracellular cAMP production” value with LH/hCG-R in MCF10F cells is listed as “time-dependent increase”. Further, the “susceptibility of the mammary gland to carcinogenesis” value in test [2] (21 day-treatment of virgin rats before carcinogen (DMBA) administration) is on record as “reverted”. Also, the “mediators of the preventive effect in the mammary gland” value in [2] (rats, hCG treatment) is “induction of differentiation of the mammary gland, depression of DNA synthesis, and changes in the genomic profile of the gland”. Moreover, in [2] (setting [3]), the “expression of CTBP1, KDM1, MLL5 and KDM6B” value is on record as “upregulated”; the “expression of RPS6KA3 and BMI1” value is on record as “downregulated”.
